Here are results for one compound from ChEMBL document CHEMBL1141454, “Structural and functional basis of cyclooxygenase inhibition” (J Med Chem, 2007).

The chains behind the UniProt entries cited, without tags or fusion partners.
UniProt P23219, whole entry: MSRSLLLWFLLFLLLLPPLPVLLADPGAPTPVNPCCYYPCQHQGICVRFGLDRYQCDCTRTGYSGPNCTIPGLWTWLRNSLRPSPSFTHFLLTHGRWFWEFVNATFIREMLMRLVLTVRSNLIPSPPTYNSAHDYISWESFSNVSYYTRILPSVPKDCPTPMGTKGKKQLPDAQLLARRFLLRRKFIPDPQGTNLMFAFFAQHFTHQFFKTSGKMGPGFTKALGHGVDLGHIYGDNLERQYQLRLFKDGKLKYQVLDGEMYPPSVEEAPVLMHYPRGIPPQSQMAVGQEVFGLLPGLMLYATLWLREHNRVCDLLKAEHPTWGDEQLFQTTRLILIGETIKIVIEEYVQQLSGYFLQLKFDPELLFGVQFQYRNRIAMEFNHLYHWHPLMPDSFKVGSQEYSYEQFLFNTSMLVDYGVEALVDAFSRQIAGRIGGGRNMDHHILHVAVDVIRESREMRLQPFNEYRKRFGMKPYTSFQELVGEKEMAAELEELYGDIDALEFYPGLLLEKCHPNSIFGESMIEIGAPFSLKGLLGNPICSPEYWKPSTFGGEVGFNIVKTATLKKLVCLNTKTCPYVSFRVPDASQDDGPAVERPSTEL

This experiment has as its target Prostaglandin G/H synthase 1 (Homo sapiens, UniProt P23219).

As to `CC(C(=O)O)c1ccc(-c2ccccc2)c(F)c1` (stereo unspecified) [FLURBIPROFEN], the IC50 worked out at 10 nM.

For orientation: IC50 means the midpoint of a concentration-inhibition curve. Read a high IC50 as weaker potency.
